Measured values from ChEMBL document CHEMBL1133251, “Synthesis and biological evaluation of 1-azabicyclo-[3.2.1]octanes: new dopamine transporter inhibitors” (Bioorg Med Chem Lett, 2000).

By UniProt entry, the sequences of proteins in these tests, tags left out.
UniProt P31652, whole entry: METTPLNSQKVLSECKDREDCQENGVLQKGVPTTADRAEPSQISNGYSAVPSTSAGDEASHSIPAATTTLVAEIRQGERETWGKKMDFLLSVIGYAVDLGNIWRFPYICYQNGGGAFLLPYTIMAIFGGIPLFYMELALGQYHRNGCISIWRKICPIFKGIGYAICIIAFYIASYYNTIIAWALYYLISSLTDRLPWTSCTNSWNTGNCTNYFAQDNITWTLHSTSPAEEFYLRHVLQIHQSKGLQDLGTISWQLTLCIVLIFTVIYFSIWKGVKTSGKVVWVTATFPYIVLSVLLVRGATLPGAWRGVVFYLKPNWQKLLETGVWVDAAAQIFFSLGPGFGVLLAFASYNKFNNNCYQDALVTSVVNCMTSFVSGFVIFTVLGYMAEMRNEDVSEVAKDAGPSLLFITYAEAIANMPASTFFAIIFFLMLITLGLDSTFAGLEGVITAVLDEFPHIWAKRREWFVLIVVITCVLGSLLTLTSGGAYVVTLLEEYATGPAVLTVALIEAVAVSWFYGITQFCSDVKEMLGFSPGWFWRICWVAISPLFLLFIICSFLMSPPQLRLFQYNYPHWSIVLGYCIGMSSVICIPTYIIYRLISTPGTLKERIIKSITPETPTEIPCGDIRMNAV

Target: Sodium-dependent serotonin transporter (Rattus norvegicus, UniProt P31652)
Test: Inhibition of [3H]-5-HT binding to serotonin transporter of rat brain synaptosomes
Format: subcellular

`COC(=O)[C@H]1[C@@H](OC(=O)c2ccccc2)C[C@@H]2CC[C@H]1N2C` [COCAINE] showed a Ki of 413 nM.
